Laboratory results taken from BindingDB's records for doi:10.1021/acs.jmedchem.5b01110 (Mayo Clinic, 2015).

Protein sequences, listed by entry. Tags and fused reporters are not part of them.
UniProt P32238, whole entry L356H: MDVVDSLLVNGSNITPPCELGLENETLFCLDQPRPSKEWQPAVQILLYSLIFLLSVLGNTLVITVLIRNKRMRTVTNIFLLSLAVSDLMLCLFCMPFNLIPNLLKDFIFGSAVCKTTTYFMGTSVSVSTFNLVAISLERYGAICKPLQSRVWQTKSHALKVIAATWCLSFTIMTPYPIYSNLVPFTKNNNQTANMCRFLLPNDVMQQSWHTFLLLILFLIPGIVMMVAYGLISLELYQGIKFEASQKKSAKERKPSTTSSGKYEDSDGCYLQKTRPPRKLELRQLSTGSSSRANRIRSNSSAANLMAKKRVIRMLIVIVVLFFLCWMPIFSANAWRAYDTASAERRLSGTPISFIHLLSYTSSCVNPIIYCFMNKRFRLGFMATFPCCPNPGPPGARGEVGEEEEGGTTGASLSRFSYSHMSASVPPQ
UniProt P32238, whole entry M121A: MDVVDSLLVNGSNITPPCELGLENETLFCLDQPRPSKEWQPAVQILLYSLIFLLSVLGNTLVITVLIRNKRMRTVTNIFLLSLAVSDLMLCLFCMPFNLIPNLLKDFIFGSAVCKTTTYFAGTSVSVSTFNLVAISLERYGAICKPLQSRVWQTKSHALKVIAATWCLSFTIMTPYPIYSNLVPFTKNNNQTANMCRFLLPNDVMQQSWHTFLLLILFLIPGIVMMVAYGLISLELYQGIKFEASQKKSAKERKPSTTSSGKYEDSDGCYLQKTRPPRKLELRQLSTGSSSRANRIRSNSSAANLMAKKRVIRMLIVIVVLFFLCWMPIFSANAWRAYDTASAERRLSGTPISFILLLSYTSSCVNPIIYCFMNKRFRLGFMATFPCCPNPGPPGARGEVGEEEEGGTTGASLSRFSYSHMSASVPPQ

Key:
[1] = molecular target: T1, Cholecystokinin receptor type A (Homo sapiens, UniProt P32238); assay: Displacement of [125I-BDZ-1] from human CCK1R L7.39H mutant expressed in CHO cells after 60 mins by scintillation counter
[2] = molecular target: T1, Cholecystokinin receptor type A; assay: Displacement of [125I-BDZ-1] from human CCK1R M3.32A mutant expressed in CHO cells after 60 mins by scintillation counter
[3] = molecular target: T2, Gastrin/cholecystokinin type B receptor (Homo sapiens, UniProt P32239); assay: Agonist activity at human CCK2R T2.61N mutant expressed in CHO cells assessed as intracellular calcium response by fluorescence analysis
T2 sequence (P32239 whole entry): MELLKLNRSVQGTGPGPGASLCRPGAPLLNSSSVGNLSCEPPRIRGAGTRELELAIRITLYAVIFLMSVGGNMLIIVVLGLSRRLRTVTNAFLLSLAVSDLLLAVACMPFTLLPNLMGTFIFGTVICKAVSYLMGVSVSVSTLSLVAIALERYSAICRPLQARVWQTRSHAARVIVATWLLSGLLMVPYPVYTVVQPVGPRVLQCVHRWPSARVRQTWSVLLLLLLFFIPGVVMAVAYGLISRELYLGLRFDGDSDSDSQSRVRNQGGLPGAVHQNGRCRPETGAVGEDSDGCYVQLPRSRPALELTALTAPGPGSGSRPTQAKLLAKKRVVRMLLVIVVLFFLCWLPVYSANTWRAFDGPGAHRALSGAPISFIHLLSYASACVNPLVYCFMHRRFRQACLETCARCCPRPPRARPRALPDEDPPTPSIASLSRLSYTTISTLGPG

[4] = molecular target: T2, Gastrin/cholecystokinin type B receptor; assay: Agonist activity at human CCK2R V3.28T, S3.29T mutant expressed in CHO cells assessed as intracellular calcium response by fluorescence analysis

Row | IC50 [1] | IC50 [2] | EC50 [3] | EC50 [4] | SMILES
1 | < 1000 nM | < 1000 nM | – | – | Cc1cc(C)cc(C[C@H]2CCCCN2C(=O)CN2C(=O)[C@@H](Cc3n[nH]c4ccccc34)c3nnc(-c4ccccc4)n3-c3ccccc32)c1
2 | – | – | < 1000 nM | < 1000 nM | CC(C)N(Cc1ccccc1)C(=O)CN1C(=O)[C@@H](Cc2c[nH]c3ccccc23)c2nnc(-c3ccccc3)n2-c2ccccc21 [2-((4S)-4-((1H-indol-3-yl)methyl)-5-oxo-1-phenyl-4H-benzo[b][1,2,4]triazolo[4,3-d][1,4]diazepin-6(5H)-yl)-N-benzyl-N-isopropylacetamide]
